Measured values published in US20250264455.

Target: T1, QtEnc^FLAG
T1 chain: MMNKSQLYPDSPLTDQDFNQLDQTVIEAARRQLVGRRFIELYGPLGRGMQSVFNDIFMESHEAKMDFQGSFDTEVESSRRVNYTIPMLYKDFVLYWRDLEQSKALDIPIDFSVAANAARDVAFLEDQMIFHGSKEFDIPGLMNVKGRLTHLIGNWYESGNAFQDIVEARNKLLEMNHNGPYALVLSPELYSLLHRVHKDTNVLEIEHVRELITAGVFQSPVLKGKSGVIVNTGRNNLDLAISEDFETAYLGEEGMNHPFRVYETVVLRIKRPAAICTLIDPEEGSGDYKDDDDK

B1: DD-CgPPK2b-QtSig (protein)
chain: [left out - about 100 residues]GSGVGKLPIMAETNENDLPVIDLAQIEGYVVDDSDEDDPVLLRPDGTPIETWREDFPYEERVTREDYEKVKRSLQIELLKWQNWTKETGQRHIILFEGRDAAGKGGTIKRFNEHLNPRGARTVALEKPSPRESTSWYFQRYIQHFPAAGEIVFFDRSWYNRSGVERVMGFCTESQHAEFLREVPMLENMILGSGISLTKFWFSVTRKEQRTRFAIRQVDPVRQWKLSPMDLASLDRWDDYTRAKEEQFRYTDTDESPWITIKSNDKKRARINAMRYVLSKFDYTDKDYELVGEPDPKVVLRGRDQIGDGGGGSGGGGSKGFTVGSLIQ
B1 was tested, and the “DAPI-stained polyP fluorescence at the encapsulin band on Clear-Native PAGE” value was “The UV fluorescence imaging of the gel (upper panel) reveals bands indicating intraluminal polyP accumulation. No UV fluorescent bands are observed when no cargo protein is co-expressed”.
